Laboratory results from ChEMBL document CHEMBL2021892, “Rational design, synthesis and anti-proliferative properties of new CB2 selective cannabinoid receptor ligands: an investigation of the 1,8-naphthyridin-2(1H)-one scaffold” (Eur J Med Chem, 2012).

Protein sequences, listed by entry. Tags and fused reporters are not part of them.
UniProt P21554, whole entry: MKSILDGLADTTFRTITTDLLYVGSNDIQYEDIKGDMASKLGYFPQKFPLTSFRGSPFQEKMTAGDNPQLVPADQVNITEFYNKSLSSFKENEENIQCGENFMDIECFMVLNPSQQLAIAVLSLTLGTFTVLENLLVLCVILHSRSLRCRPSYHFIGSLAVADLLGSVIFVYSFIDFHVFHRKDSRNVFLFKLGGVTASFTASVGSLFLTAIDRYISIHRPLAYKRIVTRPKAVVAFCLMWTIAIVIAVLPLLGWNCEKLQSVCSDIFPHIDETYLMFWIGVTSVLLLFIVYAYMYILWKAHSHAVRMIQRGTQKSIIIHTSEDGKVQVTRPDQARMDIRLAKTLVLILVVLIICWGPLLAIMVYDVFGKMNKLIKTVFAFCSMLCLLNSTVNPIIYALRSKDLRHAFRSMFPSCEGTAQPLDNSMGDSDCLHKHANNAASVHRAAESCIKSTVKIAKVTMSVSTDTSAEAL

Target: Cannabinoid receptor 1 (Homo sapiens, UniProt P21554)
Experiment: Displacement of [3H]CP55940 from recombinant human CB1 receptor expressed in human HEK293 cell membrane after 90 mins
Assay type: cell membranes
Outline: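 Membranes of HEK-293 cells transfected with human recombinant CB1R (Bmax 2.5 pmol/mg protein) or CB2R (Bmax 4.7 pmol/mg protein). Test compound at increasing concentrations displaced [3H]CP55,940 over 90 min at 30 °C. Ki obtained from IC50 by Cheng–Prusoff. Means of at least three experiments run in duplicate.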

Work on Cc1ccc(Cn2nc(C(=O)N[C@@H]3C(C)(C)[C@@H]4CC[C@@]3(C)C4)cc2-c2ccc(Cl)c(C)c2)cc1 yielded a Ki of 121 nM.
